The values that follow come from patent EP4840864A1, “CRYSTAL FORM OF PYRIDOPYRIMIDINE DERIVATIVE, PREPARATION METHOD THEREFOR AND USE THEREOF” (dated 2026).

The IC50 is the concentration that gives 50% inhibition.

Data set [1] in a line: Solid stability test, crystal form checked by XRPD. On the procedure:
According to the "Guidelines for the Stability Testing of Drug Substances and Pharmaceutical Preparations" (General Chapter 9001, Part IV, Chinese Pharmacopoeia 2020 Edition), the solid stability of crystal form A of the compound of formula (I) was evaluated. The crystal form A was respectively placed under conditions of high temperature (60°C, open), high humidity (25°C / 92.5% relative humidity, open), and illumination (open, illuminated under conditions of 5000 +/- 500 lux (visible light) and 90 w/cm^2 (ultraviolet) for 10 days, where the total illuminance received was not less than 1.2×10^6 Lux-hr, and the near-ultraviolet energy was not less than 200 w·hr/m^2; samples of a light-shielding control group were placed at the same time and wrapped in aluminum foil). Each sample was placed in an amount of 1.5 g. After the completion of sample placement, all stability samples were subjected to XRPD testing, and the results are shown in Table 9. Table 9. Solid stability test results of crystal form A of the compound of formula (I)

A short description of data set [2]: Hygroscopicity study by dynamic vapor sorption (DVS). The conditions noted are these: 25°C, 80% RH. How it is done: • Instrument model: SMS DVS Advantage dynamic vapor sorption analyzer • Testing conditions: A sample (10 to 30 mg) is placed into a DVS sample pan for testing. • Detailed DVS parameters are as follows: • Temperature: 25°C • Equilibrium: dm/dt = 0.005%/min (minimum: 10 min, maximum: 180 min) • Gas: N2 • RH (%) testing steps: 10% (90%-0%-90%); 5% (95%-90%, 90%-95%) • RH (%) testing step range: 0% - 95% - 0%
The classification for evaluating hygroscopicity is as follows: Table 2. Classification for evaluating hygroscopicity
10 to 30 mg of the crystal form A of the compound of formula (I) was placed into a DVS sample pan for testing.

The test system of the next data set is GP2D cells. The data set can be described thus: Proliferative inhibitory effect on GP2D cell line (CellTiter-Glo 3D). The settings on record: read-out: GP2D IC50; GP2D human colon cancer cells with KRAS G12D mutation, 5 days. How it is done: Cell culture medium for experiment: Fetal bovine serum at a final concentration of 10% and a penicillin/streptomycin solution at a final concentration of 1% were added into a DMEM cell culture medium, and the mixture was stored at 4°C for future use.
GP2D cells that had reached 80% cell confluence were digested with trypsin, centrifuged, resuspended, and counted. A cell suspension was prepared using the culture medium. The cell suspension was added into a 96-well plate at an amount of 180 µL/well (1000 cells/well). The plate was placed in a cell incubator containing 5% CO2 and cultured at 37°C overnight.
The test compound was diluted with a DMSO solution to 200 µM, and then further diluted with the complete culture medium to 10 µM. […]
After the compound was incubated for the above-mentioned time, the 96-well cell culture plate was taken out. […] The plate was read on an Envision plate reader using the *US LUM-US LUM 96 (cps) program.
The measured signal values of each group were normalized by subtracting the signal value of a cell-free control well. Data were calculated according to the following formula for the cell viability after the compound treatment: % Inhibition rate = (1 - (RFU compound - AVER(RFU negative control)) / (AVER(RFU positive control) - AVER(RFU negative control))) x 100%. […]

For `C#Cc1c(F)ccc2cc(N)cc(-c3ncc4c(N5CC6CCC(C5)N6)nc(OC[C@]56CC(=C)CN5C[C@@H]5C[C@@H]56)nc4c3F)c12`, the Crystal form entry is recorded as “Crystal form A” in data set [1] (High humidity (25°C, 92.5% relative humidity, open), 30 days, XRPD); “Crystal form A” in data set [1] (High temperature (60°C, open), 30 days, XRPD); “Crystal form A” in data set [1] (Light-shielding control group, placed simultaneously with visible + ultraviolet light, wrapped in aluminum foil, XRPD); “Crystal form A” in data set [1] (Visible light + ultraviolet light (ICH conditions, open), visible no less than 1.2 × 10^6 Lux·hr, ultraviolet no less than 200 w·hr/m^2, XRPD). Further, in data set [1] (high temperature, high humidity, and illumination), the “Change of crystal form under all the stability conditions” value was “did not undergo a significant change”. The Hygroscopicity classification result in data set [2] was “slightly hygroscopic”. Moreover, the “ΔW (hygroscopic weight gain)” value in data set [2] (DVS) was found to be 1.606%. Further, the IC50 with GP2D cells stood at 1.25 nM.
